Experimental data as given in patent US6528675B1, “Cyanohydrin ethers and esters as high-sensitivity enzyme substrates” (The Regents of the University of California, priority 2001, dated 2003).

Experiment: Change in optical properties, UV absorption of esters and hydrolysis products
Type: physicochemical
Description: The substrates representing the invention were (R/S)-acetic acid cyano-(6-methoxynaphthalen-2-yl)-methyl ester (the title compound of Synthesis Example 1 above) and (trans/cis)-3-(2,2-dichlorovinyl)-2,2-dimethylcyclopropanecarboxylic acid cyano-(6-methoxynaphthalen-2-yl)-methyl ester (the title compound of Synthesis Example 2 above).

Row | Compound | λmax (tris-maleate pH 6.5, 10 μM) [nm] | λmax (tris-maleate pH 7.5, 10 μM) [nm] | λmax (tris-maleate pH 8.5, 10 μM) [nm]
1 | CC(=O)Oc1ccc2ccccc2c1 [Compound 2-NA, 2-naphthacetate, reference compound] | 284 | 283 | 283
2 | naphthol | 285 | – | –
